Assay [1] deals with Dual specificity protein kinase CLK3 (Homo sapiens, UniProt P49761). The experiment in a line: Inhibition of human CLK3 by radiometric assay.
Assay [2] deals with Dual specificity protein kinase CLK2 (Homo sapiens, UniProt P49760). Put plainly: Inhibition of human CLK2 by radiometric assay.
Assay [3] concerns the target Dual specificity protein kinase CLK1 (Homo sapiens, UniProt P49759). Put plainly: Inhibition of human CLK1 by radiometric assay.

The chains behind the UniProt entries cited, without tags or fusion partners. Where a name states a change or a piece, a line headed by the entry shows the natural chain unless it says otherwise.
UniProt P49761: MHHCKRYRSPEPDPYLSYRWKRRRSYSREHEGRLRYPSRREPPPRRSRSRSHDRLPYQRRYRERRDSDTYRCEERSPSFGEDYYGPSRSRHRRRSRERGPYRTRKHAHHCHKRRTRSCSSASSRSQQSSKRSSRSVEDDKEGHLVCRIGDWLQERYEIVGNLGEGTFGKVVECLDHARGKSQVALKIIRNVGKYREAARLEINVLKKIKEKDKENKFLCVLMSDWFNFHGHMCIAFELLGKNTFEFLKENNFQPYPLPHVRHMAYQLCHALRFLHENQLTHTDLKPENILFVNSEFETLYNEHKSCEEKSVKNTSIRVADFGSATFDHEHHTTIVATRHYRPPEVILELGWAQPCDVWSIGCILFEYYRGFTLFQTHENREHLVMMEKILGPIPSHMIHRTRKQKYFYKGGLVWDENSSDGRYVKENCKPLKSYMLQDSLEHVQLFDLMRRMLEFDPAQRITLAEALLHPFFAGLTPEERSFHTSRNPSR
UniProt P49760, whole entry: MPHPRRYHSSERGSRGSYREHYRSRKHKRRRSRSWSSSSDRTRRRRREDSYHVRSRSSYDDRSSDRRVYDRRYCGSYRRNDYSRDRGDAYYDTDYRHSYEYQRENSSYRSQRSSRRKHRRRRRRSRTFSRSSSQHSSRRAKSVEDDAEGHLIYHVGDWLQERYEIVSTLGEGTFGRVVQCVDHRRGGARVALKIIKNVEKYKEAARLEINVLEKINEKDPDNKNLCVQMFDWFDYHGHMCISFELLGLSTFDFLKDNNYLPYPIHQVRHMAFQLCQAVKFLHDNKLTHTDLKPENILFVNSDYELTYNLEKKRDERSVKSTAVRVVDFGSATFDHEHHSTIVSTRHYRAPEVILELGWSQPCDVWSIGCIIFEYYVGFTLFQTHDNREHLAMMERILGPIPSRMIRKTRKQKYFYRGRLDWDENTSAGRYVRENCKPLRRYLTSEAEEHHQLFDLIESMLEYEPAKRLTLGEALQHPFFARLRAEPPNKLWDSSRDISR
UniProt P49759: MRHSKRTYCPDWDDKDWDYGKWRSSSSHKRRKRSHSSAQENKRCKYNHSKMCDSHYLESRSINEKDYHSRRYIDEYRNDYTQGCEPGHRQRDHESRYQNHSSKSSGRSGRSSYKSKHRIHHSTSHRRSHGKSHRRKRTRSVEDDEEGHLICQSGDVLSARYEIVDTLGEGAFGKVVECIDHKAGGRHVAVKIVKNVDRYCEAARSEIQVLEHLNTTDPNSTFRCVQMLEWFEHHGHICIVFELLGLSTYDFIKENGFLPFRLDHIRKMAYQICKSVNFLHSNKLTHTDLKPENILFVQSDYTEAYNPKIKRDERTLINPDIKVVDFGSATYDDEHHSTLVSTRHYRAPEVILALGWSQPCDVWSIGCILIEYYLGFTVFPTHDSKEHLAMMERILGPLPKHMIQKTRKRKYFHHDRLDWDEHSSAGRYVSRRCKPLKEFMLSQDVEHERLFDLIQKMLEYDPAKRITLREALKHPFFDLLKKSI

pIC50: −log10 of the molar value. Bounds are passed on as bounds.

A word on the pIC50: it is the negative decadic logarithm of the IC50, by convention in mol/L. Read a high pIC50 as a small IC50. On to `Cn1cc(-c2ccc3occ(-c4cccc(-c5ccncc5)c4)c3n2)cn1`, for which the pIC50 in assay [1] was less than 5.52; in assay [2] it was 7.70; in assay [3] it was 8.10.
